# Biological target: T1, human neutrophil elastase (Homo sapiens, UniProt P08246)
# T1 construct: followed by fMLF (0.1 μM) for 20 min to release the elastase from the cells; endogenous in cells; host or cells: human neutrophils; degranulation supernatant after CB/fMLF stimulation
# T1 sequence (P08246 30-247 limits assumed): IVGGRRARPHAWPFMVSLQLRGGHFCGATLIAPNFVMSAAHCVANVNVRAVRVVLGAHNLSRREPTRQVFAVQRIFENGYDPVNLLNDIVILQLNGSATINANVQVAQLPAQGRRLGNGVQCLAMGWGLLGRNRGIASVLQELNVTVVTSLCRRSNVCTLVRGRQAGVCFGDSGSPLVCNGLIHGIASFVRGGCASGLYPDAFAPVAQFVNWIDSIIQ
# Assay: Elastase enzymatic activity (cell-free)
# Type: biochemical
# Conditions: positive control
# Procedure: The compounds were further tested for direct inhibition of elastase enzymatic activity. The neutrophil suspension (6 × 10^5 cells mL^−1) was preheated for 5 min in the presence of CaCl2 (1 mM) at 37 °C. Priming agent CB (1.5 μg mL^−1) was added for 2 min, followed by fMLF (0.1 μM) for 20 min to release the elastase from the cells. After centrifugation at 1000 g for 5 min at 4 °C, the supernatant containing elastase was preheated at 37 °C for 5 min, and the test compounds were added. Then, 0.1 mM of substrate methoxysuccinyl-Ala-Ala-Pro-Val-p-nitroanilide was added for 10 min. The effect of the compounds on elastase enzymatic activity was quantified by measuring the absorbance at 405 nm.
compound,measurement,value
"CC(C)(C)C(=O)Oc1ccc(S(=O)(=O)Nc2ccccc2C(=O)NCC(=O)O)cc1 [Sivelestat, reference compound]",IC50,0.0179 µM
